Molecular target: T1, IDE (Rattus norvegicus, UniProt P35559)
T1 sequence (P35559 1-1019): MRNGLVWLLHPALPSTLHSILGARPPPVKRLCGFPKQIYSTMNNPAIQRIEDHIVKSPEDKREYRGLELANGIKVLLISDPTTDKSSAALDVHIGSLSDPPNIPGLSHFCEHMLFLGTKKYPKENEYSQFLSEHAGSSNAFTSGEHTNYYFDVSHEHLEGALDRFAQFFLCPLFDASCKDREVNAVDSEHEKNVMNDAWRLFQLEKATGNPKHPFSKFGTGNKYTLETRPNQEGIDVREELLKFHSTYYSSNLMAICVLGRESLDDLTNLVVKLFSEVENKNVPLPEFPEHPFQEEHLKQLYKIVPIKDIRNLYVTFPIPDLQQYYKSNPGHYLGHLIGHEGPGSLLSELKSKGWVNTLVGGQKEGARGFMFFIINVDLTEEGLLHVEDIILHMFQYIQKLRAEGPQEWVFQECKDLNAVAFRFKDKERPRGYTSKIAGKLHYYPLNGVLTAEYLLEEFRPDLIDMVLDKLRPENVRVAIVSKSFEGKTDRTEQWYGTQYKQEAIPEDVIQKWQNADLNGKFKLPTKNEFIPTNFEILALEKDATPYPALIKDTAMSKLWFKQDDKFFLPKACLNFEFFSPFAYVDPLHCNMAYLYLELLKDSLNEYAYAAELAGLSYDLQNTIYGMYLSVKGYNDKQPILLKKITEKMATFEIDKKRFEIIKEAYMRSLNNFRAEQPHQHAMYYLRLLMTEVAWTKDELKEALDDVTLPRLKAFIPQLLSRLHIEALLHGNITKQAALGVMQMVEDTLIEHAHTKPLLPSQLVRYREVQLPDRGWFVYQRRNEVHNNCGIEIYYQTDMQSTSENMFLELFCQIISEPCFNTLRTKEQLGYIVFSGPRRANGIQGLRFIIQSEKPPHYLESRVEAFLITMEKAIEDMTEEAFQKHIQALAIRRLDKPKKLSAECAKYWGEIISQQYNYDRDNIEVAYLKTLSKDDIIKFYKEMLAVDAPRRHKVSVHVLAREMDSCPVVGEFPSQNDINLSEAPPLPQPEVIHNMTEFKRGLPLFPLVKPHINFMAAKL
Experiment: Specificity/inhibition of T40-degrading activity of IDE
Format: biochemical
Parameters: purchased Merck, UK
Conditions: 16 µM T40, 22 nM IDE, 37°C, 90 min; insulin or IgG 2–16 µM, 1,10-phenanthroline 1 and 10 mM

`c1cnc2c(c1)ccc1cccnc12` [1,10-phenanthroline] was tested, and the “inhibition of IDE degradation of T40” value was “dose dependent inhibition”.

Source: article PMC1920558 (PLoS ONE, 2007)
